# Values of other authors as cited in publication PMC10453589.
# Biological target: amyloid beta (Homo sapiens) (UniProt P05067)
substance,measurement,value
calmodulin (from UniProt P0DP23),pKd,9.00

# pKd: −log10 of the molar value.
